From patent publication US20230381237A1, “CHIMERIC ANTIGEN RECEPTOR (CAR) T-CELL ADJUVANT THERAPIES” (priority 2022, published 2023)

Test: Example 2: mouse model of CAR T-cell therapy induced CRS
Settings: IP, BID for 7 days, start 5 hours prior to CAR-T cell transfer

## CC#CC[C@H](C)[C@H](O)/C=C/[C@@H]1[C@H]2c3cccc(CCCC(=O)[O-])c3O[C@H]2C[C@H]1O.[Na+] [CTO1681, (+)-[1R, 2R, 3aS, 8bS]-2,3,3a,8b-tetrahydro-2-hydroxy-1-[(E)-(3S,4S)-3-hydroxy-4-methyl-1-octen-6-ynyl)-1Hcyclopenta[b]benzofuran-5-butanoic acid, monosodium salt]
  Undesired cytokine production vs control group: lower undesired cytokine production
